# Rows were chosen to be rich in hits. Some 2.3% of all compounds tested hit in one or more screens of this group.
# Glioma ERSR ind – induces the endoplasmic reticulum stress response in human glioma cells | U87-MG GRP78 promoter luciferase reporter, 16 h | Potency, µM, actives largely listed as activators | hit rate 0.02% among 420,000 | AID 602332; further: series mostly up to about 76 µM; nearly all actives have a fitted effect of over 35% in size
#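 ERSR induction read as luciferase luminescence (Bright-Glo, 10 min at room temperature) in stably transfected human U87-MG glioma cells exposed to compounds for 16 h, using GRP78 as sensor.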
# miR-21 reporter – raises the signal of a miR-21 reporter | HeLa miR-21 FLuc reporter, luciferase, 48 h | Potency, µM (highest dose often 38.3 µM) | 340,000 tested, under 10 active | AID 2288; active = well fitted rising curve with a large enough effect; inconclusive = small, poorly fitted or top-dose-only effect; inactive = no such curve, though single readings can be large or run the other way;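 note: miR-21 action dims this reporter so a rising signal means less miR-21 action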
#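 HeLa miR-21-FLuc reporter line, endogenous miR-21; 2000 cells/well in DMEM/10% FBS; compound titration up to ~40uM final, 48 h, 37 degree Celsius; luciferase detection reagent, 15 min lysis, CCD luminescence.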
# Nrf2 inh – Nrf2 pathway inhibition | A549 ARE-Fluc reporter, luciferase luminescence, 18-24 h | Potency, µM (doses to about 46 µM), most hits filed as inhibitors | hit rate 2.1% among 360,000 | AID 504444; further: nearly all actives have a fitted effect of over 60% in size
#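 Reporter: ARE-Fluc in A549. Exposure: 18-24 h, 37 °C, 5% CO2, 5% FBS OPTI-MEM. Readouts: fluorescent cytotoxicity (CellTiter-Fluor), then luminescent Nrf2 signal after BugLite.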
# Nrf2 ARE act – activators of Nrf2 (ARE) signaling; AREc32 ARE-luciferase reporter (MCF7-derived line), luminescence, 24 h; Potency, µM (titrated, usually from 46.1 µM), actives largely listed as activators; hit rate 0.31% among 410,000; further: nearly all actives have a fitted effect of over 65% in size
#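 Nrf2 activation is followed as ARE-luciferase induction in the AREc32 line after one day of compound treatment; luminescence is read with Steady-Glo.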
# A549 viability – counter-screen for Nrf2 inhibitors: cytotoxicity in A549 cells. hit rate 0.16% among 390,000. Potency, µM (series often up to 46 µM), actives largely listed as inhibitors. A549 ARE-Fluc cells, CellTiter-Fluor viability, 18-24 h
#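 A549 ARE-Fluc cells in 5% FBS OPTI-MEM, 5000 cells/well, rested 2 h then exposed to compounds in concentration-response for 18-24 h at 37 °C. Viability by CellTiter-Fluor fluorescence (Ex 405/Em 525) after 30 min; luciferase luminescence (BugLite, 15 min, RT) read afterwards.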
# Mito fusion yeast – mitochondrial division inhibition or fusion activation. S. cerevisiae fusion-defective mutant growth rescue, CellTiterGlo 48 h. Potency, µM (highest dose often 46.1 µM), hits mostly activators. hit rate 0.23% among 320,000. AID 485298; further: nearly all actives have a fitted effect of over 45% in size
#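 Read-out: ATP-based luminescence (CellTiterGlo, 10 min ambient) reporting growth of fusion-defective ts yeast after 48 hours at 37C on glycerol/ethanol YPEG medium in the presence of compound.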
# Numbers stand for hits; i = inactive; ? = inconclusive; nt = no result given. Unless noted, the call rests on the fitted dose curve; in most records, active means well fitted curve in the direction sought with a large enough effect; inconclusive means small, poorly fitted or top-dose-only effect, or another doubt; inactive means no such curve, though single readings can be large; an effect the other way counts as inactive or inconclusive.
SMILES,Glioma ERSR ind,miR-21 reporter,Nrf2 inh,Nrf2 ARE act,A549 viability,Mito fusion yeast
COc1ccc(NC(=O)CSc2ncccc2C(=O)OC(C)C)cc1OC,i,i,9.2µM,i,i,i
COc1ccc(NC(=O)c2ccccc2SC)cc1OC,i,i,nt,i,i,i
COc1ccc(NC(=O)CSc2nc(-c3ccc(F)cc3)[nH]c2-c2ccc(C)cc2)cc1OC,i,?,?,i,?,nt
COc1cc(-c2nc(SCC(=O)Nc3ccc(C)cc3)c(-c3ccc(F)cc3)[nH]2)cc(OC)c1OC,i,?,?,i,?,nt
O=C(NCc1ccccc1C(F)(F)F)C1CC(O)CN1C(=O)Nc1ccccc1 (configuration not stated),i,i,i,i,i,i
C[C@@]12C(=O)OC(=O)[C@@]1(C)[C@@H]1CC[C@@H]2O1,i,nt,nt,nt,nt,nt
COc1ccc(NC(=O)CSc2nc(-c3ccccc3)[nH]c2-c2ccccc2)cc1OC,i,i,16µM,i,i,nt
CN(C)S(=O)(=O)c1ccc(C(=O)Nc2nnc(-c3cccs3)o2)cc1,i,i,?,i,i,i
CC1CC(C)CN(S(=O)(=O)c2ccc(C(=O)Nc3nnc(-c4cccs4)o3)cc2)C1 (configuration not stated),i,i,5µM,i,?,i
CCC1CCCCN1S(=O)(=O)c1ccc(C(=O)Nc2nnc(-c3cccs3)o2)cc1 (configuration not stated),i,i,5µM,i,?,i
CCC1CCCCN1S(=O)(=O)c1ccc(NC(=O)c2cccnc2)cc1 (configuration not stated),i,i,i,i,i,i
O=C(Nc1ccccc1)c1cc(C2COCCN2C(=O)c2ccccn2)on1 (configuration not stated),i,nt,nt,i,nt,nt
O=C(CSc1nnc(C2CC2)n1-c1ccccc1)NCCN1C(=O)CSC1=O,i,i,i,i,i,i
CC(C)(C)c1ccc(NC(=O)N2CCN(c3ccc([N+](=O)[O-])cn3)CC2)cc1,i,i,13µM,i,i,i
Cc1cc([N+](=O)[O-])ccc1NCc1cccc2ccccc12,i,nt,15µM,i,?,nt
Cc1cc([N+](=O)[O-])ccc1NCc1ccccc1[N+](=O)[O-],i,i,i,i,i,i
NC(=O)c1cc([N+](=O)[O-])ccc1NCc1ccc(N)cc1,i,nt,9.2µM,i,?,i
O=C(NNC(=S)Nc1ccc(Br)cc1)c1ccccc1Br,i,i,i,i,i,i
O=C(c1cc(-c2ccccc2)nn1-c1ccccc1)N1CCN(S(=O)(=O)c2cccc(F)c2)CC1,i,nt,i,i,i,i
O=C1c2cccc(O)c2C(=O)c2c(O)cccc21,i,i,nt,nt,nt,i
CC1OC(CC(=O)O)CC2=C1C(=O)c1c(O)cccc1C2=O (configuration not stated),i,nt,21µM,i,15µM,nt
CC1CC(=O)c2c(cc3c(-c4c(O)cc(O)c5c(O)c6c(cc45)OC(C)CC6=O)c(O)cc(O)c3c2O)O1 (configuration not stated),?,?,12µM,i,?,i
O=C1CC(c2ccccc2)Oc2cc(O)cc(O)c21 (configuration not stated),i,i,i,i,i,i
CC1CCCC(C)N1C(=O)CSc1nnc(C2CCCCC2)o1 (configuration not stated),i,i,i,i,i,6.3µM
Cc1cnc(-n2ncc(C(=O)N(CCO)C(C)C)c2-c2cccs2)nc1-c1ccc(F)cc1,i,nt,nt,nt,nt,nt
SMILES,Glioma ERSR ind,miR-21 reporter,Nrf2 inh,Nrf2 ARE act,A549 viability,Mito fusion yeast
Cc1oc(-c2ccccc2)cc1C(=O)Nc1cccc(/C=C/C(=O)O)c1,i,i,23µM,i,i,i
Cc1cc(C(=O)Nc2cccc(/C=C/C(=O)O)c2)c(C)o1,i,i,i,i,i,i
COc1cccc(C(=O)Nc2ccc(N3CCN(C(=O)c4cccs4)CC3)cc2)c1,i,i,21µM,i,?,i
CCCC(=O)NC(=S)Nc1ccc(NC(=O)c2cccs2)cc1,i,i,i,i,i,i
CCCC(=O)NC(=S)Nc1ccc(N2CCN(C(=O)c3cccs3)CC2)cc1,i,i,15µM,i,i,i
CC1CC(C)CN(S(=O)(=O)N2CCCC(C(=O)NC3CCCCC3)C2)C1 (configuration not stated),i,i,i,i,i,i
CCCCOC(=O)N/N=C/C=C/c1ccccc1,i,i,i,i,i,i
CCOC(=O)C(Sc1cc(-c2ccccc2)nc2ncnn12)C(C)=O (configuration not stated),i,i,i,i,i,i
COc1ccccc1NC(=O)NCCc1ccccc1,i,i,i,i,i,i
COc1ccccc1NC(=O)C(NC(=O)OC(C)(C)C)C(C)OCc1ccccc1 (configuration not stated),i,i,23µM,i,i,i
CC(C)CC(=O)NC(=S)Nc1nc(-c2cccc3ccccc23)cs1,i,i,26µM,i,?,i
O=C1c2ccccc2S(=O)(=O)N1Cc1nc2ccccc2s1,i,?,13µM,i,i,i
NS(=O)(=O)c1ccc(CCNC(=O)c2ccccc2OCc2ccc(F)cc2)cc1,i,i,?,i,i,i
O=[N+]([O-])c1ccc(N2CCN(C(=S)Nc3ccc(F)cc3F)CC2)cc1,i,i,23µM,i,?,i
O=[N+]([O-])c1ccc(N2CCN(C(=S)Nc3ccc(F)cc3)CC2)cc1,i,i,?,i,i,i
O=[N+]([O-])c1ccc(N2CCN(C(=S)Nc3cccc(F)c3)CC2)cc1,i,i,16µM,i,i,i
NC(N)=N/N=C/c1ccc(Br)cc1,i,i,?,i,i,i
Cc1ccc(-c2nc(CSCC(=O)N3CCOCC3)c(C)o2)cc1,i,i,?,i,nt,i
Cc1ccc(-c2nc(CSCC(=O)N3CCN(c4ccccn4)CC3)c(C)o2)cc1,i,i,16µM,i,i,i
CCc1ccc(-c2nc(CSCC(=O)N3CCN(c4ccccn4)CC3)c(C)o2)cc1,i,?,16µM,i,?,i
Cc1ccc(-c2nc(CSCC(=O)N3CCN(C(=O)c4ccco4)CC3)c(C)o2)cc1,i,i,i,i,i,i
O=C(Nc1ccc(F)cc1)C1CCC(CNc2c(N3CCCCC3)c(=O)c2=O)CC1 (configuration not stated),i,i,i,i,i,i
COc1ccccc1NS(=O)(=O)c1ccc(N2CCOCC2)c(NC(=O)c2ccco2)c1,i,i,i,i,i,i
O=S(=O)(Nc1ccc2cn[nH]c2c1)c1ccc(Cl)cc1,i,i,?,i,i,i
Cc1cc(S(=O)(=O)Nc2ccc3cn[nH]c3c2)c(C)cc1Cl,i,i,?,i,i,11µM
